Experimental data published in patent US20220090021A1, “IN VITRO HUMAN BLOOD BRAIN BARRIER” (Massachusetts Institute of Technology, priority 2019, published 2022).

Protein sequences, listed by entry. Tags and fused reporters are not part of them.
UniProt P08183, whole entry: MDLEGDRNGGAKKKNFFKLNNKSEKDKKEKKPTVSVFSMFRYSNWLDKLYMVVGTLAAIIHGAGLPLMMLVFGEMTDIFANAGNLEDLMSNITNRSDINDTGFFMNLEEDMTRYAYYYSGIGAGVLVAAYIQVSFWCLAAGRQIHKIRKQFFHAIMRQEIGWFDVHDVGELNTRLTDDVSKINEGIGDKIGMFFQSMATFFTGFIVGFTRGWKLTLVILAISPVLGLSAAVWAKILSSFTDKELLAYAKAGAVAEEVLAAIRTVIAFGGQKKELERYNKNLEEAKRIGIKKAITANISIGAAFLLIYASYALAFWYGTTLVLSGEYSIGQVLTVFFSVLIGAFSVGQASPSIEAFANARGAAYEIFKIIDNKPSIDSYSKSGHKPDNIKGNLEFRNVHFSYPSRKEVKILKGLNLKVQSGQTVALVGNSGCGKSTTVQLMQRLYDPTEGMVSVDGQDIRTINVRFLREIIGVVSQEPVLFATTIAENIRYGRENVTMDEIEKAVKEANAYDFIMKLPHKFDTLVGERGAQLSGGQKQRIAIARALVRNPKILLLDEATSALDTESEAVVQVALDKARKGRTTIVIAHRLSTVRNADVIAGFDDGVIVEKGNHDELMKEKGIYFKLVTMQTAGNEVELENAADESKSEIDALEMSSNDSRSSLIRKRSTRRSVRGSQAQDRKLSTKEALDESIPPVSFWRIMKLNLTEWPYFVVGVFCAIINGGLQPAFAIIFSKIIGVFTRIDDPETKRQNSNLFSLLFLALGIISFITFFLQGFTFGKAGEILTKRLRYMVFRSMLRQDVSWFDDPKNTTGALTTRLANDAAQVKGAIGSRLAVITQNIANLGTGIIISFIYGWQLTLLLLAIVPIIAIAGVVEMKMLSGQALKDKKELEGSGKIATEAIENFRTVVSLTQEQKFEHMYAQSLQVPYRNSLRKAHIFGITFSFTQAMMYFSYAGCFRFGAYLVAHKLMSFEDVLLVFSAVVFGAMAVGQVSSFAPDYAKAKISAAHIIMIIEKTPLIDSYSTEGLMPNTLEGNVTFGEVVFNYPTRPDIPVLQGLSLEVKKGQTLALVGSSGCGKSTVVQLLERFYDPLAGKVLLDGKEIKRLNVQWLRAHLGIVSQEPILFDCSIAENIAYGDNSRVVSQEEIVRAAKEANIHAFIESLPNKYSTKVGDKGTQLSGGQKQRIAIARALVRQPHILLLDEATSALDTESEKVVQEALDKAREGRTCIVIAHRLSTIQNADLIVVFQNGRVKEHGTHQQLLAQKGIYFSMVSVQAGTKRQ

Molecular target: p-glycoprotein (Pgp) (Homo sapiens, UniProt P08183)
Conditions: iBBB; 5 μM reversine 121

reversine 121
permeability of rhodamine 123 from the basolateral to apical surface: not
